The values that follow come from patent publication US6610883B1, “Compounds having selective activity for retinoid X receptors, and means for modulation of processes mediated by retinoid X receptors” (Ligand Pharmaceuticals, Inc., priority 1992, dated 2003).

The test system of assay [1] is transglutaminase activity. The experiment in a line: cells. As to conditions: read-out: Concentration inhibiting 50% of the transglutaminase enzyme activity.
For a further assay, the target named is T1, RXRβ/VDR (UniProt P11473+P28704).
T1 construct: expressed in transfected cells; host or cells: CV-1
T1 sequence (P28704 1-520): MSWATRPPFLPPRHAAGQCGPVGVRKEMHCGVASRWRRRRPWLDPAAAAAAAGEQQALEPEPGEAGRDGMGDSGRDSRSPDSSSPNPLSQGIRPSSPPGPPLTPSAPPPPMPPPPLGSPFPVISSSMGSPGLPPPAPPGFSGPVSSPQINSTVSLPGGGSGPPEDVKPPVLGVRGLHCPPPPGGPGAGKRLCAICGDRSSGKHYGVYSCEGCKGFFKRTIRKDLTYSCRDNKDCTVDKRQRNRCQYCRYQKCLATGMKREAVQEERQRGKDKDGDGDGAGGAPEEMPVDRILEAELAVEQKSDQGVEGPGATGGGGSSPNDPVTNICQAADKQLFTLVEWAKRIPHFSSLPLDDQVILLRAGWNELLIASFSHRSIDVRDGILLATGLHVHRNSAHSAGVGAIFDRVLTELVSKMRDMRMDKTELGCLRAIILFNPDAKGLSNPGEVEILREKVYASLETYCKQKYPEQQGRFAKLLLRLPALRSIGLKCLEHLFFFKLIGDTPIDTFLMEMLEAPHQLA
T1 sequence (P11473 1-427): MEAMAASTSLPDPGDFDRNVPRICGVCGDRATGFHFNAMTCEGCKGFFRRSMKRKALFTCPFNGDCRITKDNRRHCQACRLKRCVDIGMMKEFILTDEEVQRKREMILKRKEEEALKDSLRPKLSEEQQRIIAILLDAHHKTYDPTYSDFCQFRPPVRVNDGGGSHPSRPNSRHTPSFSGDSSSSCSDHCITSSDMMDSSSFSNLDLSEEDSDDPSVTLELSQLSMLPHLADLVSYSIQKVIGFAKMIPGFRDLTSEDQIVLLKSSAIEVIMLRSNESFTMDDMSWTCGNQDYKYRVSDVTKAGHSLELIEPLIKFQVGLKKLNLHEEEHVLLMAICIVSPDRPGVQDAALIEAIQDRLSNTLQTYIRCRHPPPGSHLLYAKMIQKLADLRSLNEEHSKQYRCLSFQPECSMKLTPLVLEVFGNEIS
The experiment in a line: Co-transfection of RXRβ and VD receptors in CV-1 cells. In kind it is cell-based.

For `Cc1cc2c(cc1C(=O)c1ccc(C(=O)O)cc1)C(C)(C)CCC2(C)C` [3-methyl-TTNCB, 4-[(3,5,5,8,8-pentamethyl-5,6,7,8-tetrahydro-2-naphthyl)carbonyl]benzoic acid], the IC50 in assay [1] worked out at 100 nM. At RXRβ/VDR, the “Normalized Response (%)” value came out at 13%.
